Test results from PMC3388080 (PLoS ONE, 2012).

Protein sequences, listed by entry. Tags and fused reporters are not part of them.
UniProt P56719, whole entry: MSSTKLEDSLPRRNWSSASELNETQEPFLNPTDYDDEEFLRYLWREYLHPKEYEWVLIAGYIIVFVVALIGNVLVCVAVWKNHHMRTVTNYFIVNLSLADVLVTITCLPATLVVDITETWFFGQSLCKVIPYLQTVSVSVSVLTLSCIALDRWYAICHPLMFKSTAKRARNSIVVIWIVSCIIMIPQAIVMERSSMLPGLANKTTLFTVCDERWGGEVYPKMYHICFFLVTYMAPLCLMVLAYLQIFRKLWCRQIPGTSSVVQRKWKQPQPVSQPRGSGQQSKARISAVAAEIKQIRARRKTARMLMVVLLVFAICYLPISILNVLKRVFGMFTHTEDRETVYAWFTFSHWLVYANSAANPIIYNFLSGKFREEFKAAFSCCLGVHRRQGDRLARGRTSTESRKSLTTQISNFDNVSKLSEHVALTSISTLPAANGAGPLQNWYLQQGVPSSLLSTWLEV
UniProt P56718, whole entry: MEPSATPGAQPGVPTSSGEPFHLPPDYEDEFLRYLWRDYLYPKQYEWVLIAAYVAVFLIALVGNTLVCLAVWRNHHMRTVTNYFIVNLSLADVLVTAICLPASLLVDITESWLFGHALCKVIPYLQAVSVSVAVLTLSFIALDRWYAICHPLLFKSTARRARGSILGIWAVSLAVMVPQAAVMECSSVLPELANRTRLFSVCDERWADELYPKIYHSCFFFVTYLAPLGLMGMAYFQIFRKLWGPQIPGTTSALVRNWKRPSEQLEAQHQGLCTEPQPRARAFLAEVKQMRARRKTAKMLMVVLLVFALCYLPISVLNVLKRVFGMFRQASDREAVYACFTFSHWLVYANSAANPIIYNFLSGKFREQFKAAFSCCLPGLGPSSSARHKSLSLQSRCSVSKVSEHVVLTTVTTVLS

Columns and labels:
rHCRTR2 [1] = target: T1, rHCRTR2 (Rattus norvegicus, UniProt P56719); assay: Association and dissociation kinetics of [^3H]almorexant in rHCRTR2-HEK293 cell membranes; assay type: binding; details: tested as the radiolabelled form
rHCRTR1 = rHCRTR1 (Rattus norvegicus, UniProt P56718); assay: [^3H]almorexant saturation binding, HEK293-rHCRTR1 membranes; details: 23°C, tested as the radiolabelled form
rHCRTR2 [2] = target: T1, rHCRTR2; assay: [^3H]almorexant saturation binding, HEK293-rHCRTR2 membranes; details: 37°C, tested as the radiolabelled form

With `CNC(=O)[C@@H](c1ccccc1)N1CCc2cc(OC)c(OC)cc2[C@@H]1CCc1ccc(C(F)(F)F)cc1` [almorexant, (2R)-2-[(1S)-6,7-Dimethoxy-1-[2-(4-trifluoromethyl-phenyl)-ethyl]-3,4-dihydro-1H-isoquinolin-2-yl]-N-methyl-2-phenyl-acetamide] the “Association kinetic Kon” value (rHCRTR2 [1]; 37°C, calculated on rate) was 1.22e+06 ± 250000 M⁻¹ s⁻¹, the “Dissociation kinetic Koff” value (rHCRTR2 [1]; 37°C, observed off rate, excess almorexant 5 µM) was 0.00035 ± 6.7e-05 s⁻¹ and the “half-maximal binding (association)” value (rHCRTR2 [1]; 37°C) was 10 min. For the same molecule, the “time to reach binding equilibrium” value (rHCRTR2 [1]; 37°C) was no more than 50 min, the Kd (rHCRTR2 [1]; read-out: Apparent Kd, 37°C, apparent dissociation constant from kinetics) was 0.33 nM and the “rate of dissociation (in words)” value (rHCRTR2 [1]; reversal incomplete, baseline not reached even after 2 h) was “slow”. For the same molecule, the Bmax (rHCRTR1) was 27.2±0.7 pmol/mg prot, the Kd (rHCRTR1) was 3.4 nM and the Bmax (rHCRTR2 [2]) was 53.0±1.4 pmol/mg prot. The Kd (rHCRTR2 [2]) was 0.5 nM.
